Tests used:
[1] = molecular target: Amine oxidase [flavin-containing] B (Homo sapiens, UniProt P27338); test: Inhibition of recombinant human MAO-B using kynuramine as substrate assessed as 4-hydroxyquinoline production after 30 mins by fluorescence spectrophotometry analysis
Homo sapiens = species: Homo sapiens; test: Selectivity index, ratio of IC50 for recombinant human MAO-A to IC50 for recombinant human MAO-B

Amino acid sequences for entries named in this document (tags omitted).
UniProt P27338, whole entry: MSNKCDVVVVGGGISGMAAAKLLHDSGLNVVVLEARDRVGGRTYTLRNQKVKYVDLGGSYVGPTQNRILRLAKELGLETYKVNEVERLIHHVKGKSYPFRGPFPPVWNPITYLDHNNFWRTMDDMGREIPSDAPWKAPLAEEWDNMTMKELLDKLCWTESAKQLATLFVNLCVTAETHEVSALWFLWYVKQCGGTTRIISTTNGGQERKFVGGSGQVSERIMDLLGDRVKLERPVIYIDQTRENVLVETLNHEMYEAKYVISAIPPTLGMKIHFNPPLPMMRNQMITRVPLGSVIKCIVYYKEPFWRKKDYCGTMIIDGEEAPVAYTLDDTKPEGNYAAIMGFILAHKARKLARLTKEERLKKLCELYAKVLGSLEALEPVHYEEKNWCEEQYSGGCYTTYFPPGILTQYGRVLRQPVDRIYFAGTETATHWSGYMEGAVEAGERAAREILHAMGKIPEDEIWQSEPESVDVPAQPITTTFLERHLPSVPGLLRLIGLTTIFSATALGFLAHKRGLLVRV

IC50 [1]: 7 nM
Ratio IC50 (Homo sapiens): 34
Compound: O=C1CCCc2cc(OCc3ccc(Cl)cc3)ccc21
